The target in the experiment is T1, A disintegrin and metalloproteinase with thrombospondin motifs 4 (Homo sapiens, UniProt O75173).
T1 sequence (O75173 whole entry): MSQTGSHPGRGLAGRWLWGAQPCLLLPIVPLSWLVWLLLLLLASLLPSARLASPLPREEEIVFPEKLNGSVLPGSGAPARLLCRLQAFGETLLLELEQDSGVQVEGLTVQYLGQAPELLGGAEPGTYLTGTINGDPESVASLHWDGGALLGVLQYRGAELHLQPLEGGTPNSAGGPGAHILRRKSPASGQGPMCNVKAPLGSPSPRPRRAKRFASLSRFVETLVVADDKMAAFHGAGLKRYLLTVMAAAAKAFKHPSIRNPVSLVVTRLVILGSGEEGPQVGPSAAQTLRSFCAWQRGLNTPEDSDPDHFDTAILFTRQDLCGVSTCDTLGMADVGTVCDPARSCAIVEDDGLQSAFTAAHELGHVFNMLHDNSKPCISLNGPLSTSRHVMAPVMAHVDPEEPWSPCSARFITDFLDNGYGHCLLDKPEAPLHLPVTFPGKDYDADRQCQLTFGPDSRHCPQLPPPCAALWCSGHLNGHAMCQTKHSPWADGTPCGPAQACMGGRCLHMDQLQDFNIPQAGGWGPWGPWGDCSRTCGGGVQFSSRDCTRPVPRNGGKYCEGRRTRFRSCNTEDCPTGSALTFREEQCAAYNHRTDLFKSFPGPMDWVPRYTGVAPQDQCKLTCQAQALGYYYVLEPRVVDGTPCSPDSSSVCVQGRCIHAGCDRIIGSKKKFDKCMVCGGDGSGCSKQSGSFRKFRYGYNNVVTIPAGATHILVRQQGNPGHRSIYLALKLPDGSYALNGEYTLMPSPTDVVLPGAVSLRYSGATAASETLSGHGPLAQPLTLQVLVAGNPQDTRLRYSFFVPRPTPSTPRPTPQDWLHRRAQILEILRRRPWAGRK
The experiment is described as follows: Inhibition of ADAMTS-4 assessed as substrate cleavage by measuring increase in fluorescence after 16 hrs.

Experimental findings from ChEMBL document CHEMBL1681676, “The design and synthesis of novel N-hydroxyformamide inhibitors of ADAM-TS4 for the treatment of osteoarthritis” (Bioorg Med Chem Lett, 2011) are described below.

Each structure is given as a SMILES string.

Consider `C[C@@H](C[C@@](C)(CS(=O)(=O)N1CCC(OCc2ccc(Cl)cc2Cl)CC1)N(O)C=O)c1ncc(F)cn1`, for which the IC50 worked out at 3.5 nM.
